Test results as given in patent US20240043470A1, “MACROCYCLIC COMPOUNDS AS PROTEASOME INHIBITORS” (CORNELL UNIVERSITY, priority 2017, published 2024).

Molecular target: β5c of hu c-20S (Homo sapiens (Human), UniProt P20618+P28074)
Assay: IC50 determination against β5c of human constitutive proteasome (suc-LLVY-AMC hydrolysis);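 also: IC50 obtained by fitting initial reaction velocities to a dose-dependent inhibition model, with SDS present as proteasome activator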
Type: biochemical
Settings: read-out: IC50 (μM) hu c-20S, 0.2 nM c-20S, 25 μM suc-LLVY-AMC

CCC(=O)N[C@H]1Cc2cccc(c2)Oc2cccc(c2)C[C@@H](c2nc3ccccc3[nH]2)NC(=O)[C@H](CCc2ccccc2)NC1=O
IC50: 4.85 µM

CCC(=O)N[C@H]1Cc2cccc(c2)Oc2cccc(c2)C[C@@H](c2nc3cccc(F)c3[nH]2)NC(=O)[C@H](CCc2ccccc2)NC1=O
IC50: 6.08 µM
